These results are taken from patent US20030236457A1, “Method of endovascular brain mapping” (priority 2002, published 2003).

The conditions of data set [1]: cited from earlier work.
The subject of data set [2] is rat brain. As to the kind of experiment: Endovascular brain mapping: dye or embolic agent infused into the internal carotid artery, brains harvested to examine staining quality. It counts as in vivo, Sprague Dawley rats. The following applies: ICA infusion after blood brain barrier disruption with arabinose, dye mixed with Omnipaque.
The conditions of data set [3]: Table 1; medium in which the fluorophore is solubilised; cited from earlier work.

Entries after “also recorded” stand apart in the source; their conditions may differ.

For 2-hydoxypropyl-γ-CD [HP-γ-CD], the solubility in water in data set [1] was 450 mg/mL.
With Fluorescein, the “staining of the selected vascular distribution of the brain” value in data set [2] is on record as “staining was evident on the cortical surface; also recorded: good staining of a selective vascular distribution”. Also, the Solubility result in data set [3] is listed as “DDs”.
